Assay results as given in ChEMBL document CHEMBL1136357, “2-arylaminothiazoles as high-affinity corticotropin-releasing factor 1 receptor (CRF1R) antagonists: synthesis, binding studies and behavioral efficacy” (Bioorg Med Chem Lett, 2003).

Biological target: T1, Corticotropin-releasing factor receptor 1 (Homo sapiens, UniProt P34998)
T1 sequence (P34998 whole entry): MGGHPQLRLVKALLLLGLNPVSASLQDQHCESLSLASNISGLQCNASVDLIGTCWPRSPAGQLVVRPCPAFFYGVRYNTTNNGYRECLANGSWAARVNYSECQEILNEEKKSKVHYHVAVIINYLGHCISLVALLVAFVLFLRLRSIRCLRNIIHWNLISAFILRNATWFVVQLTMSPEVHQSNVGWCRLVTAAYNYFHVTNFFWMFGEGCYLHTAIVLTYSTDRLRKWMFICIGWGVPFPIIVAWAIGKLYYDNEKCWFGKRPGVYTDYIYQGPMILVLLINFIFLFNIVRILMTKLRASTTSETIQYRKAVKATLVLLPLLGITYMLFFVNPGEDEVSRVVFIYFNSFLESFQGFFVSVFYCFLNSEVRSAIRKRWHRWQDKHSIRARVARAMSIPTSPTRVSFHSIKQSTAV
Test: Binding affinity by displacement of [125I]Tyr-o-CRF from human corticotropin releasing factor receptor 1 expressed in IMR-32 human neuroblastoma cell.

Row | SMILES | Ki [µM]
1 | CCCN(Cc1oc(Nc2c(Cl)cc(Cl)cc2Cl)nc1C(F)(F)F)CC1CC1 | 3.5
2 | CCCN(Cc1sc(Nc2ccc(Cl)cc2Cl)nc1C(F)(F)F)CC1CC1 | 4.6
